Measured values published in US10023575B2, “Cyclic ether derivatives of pyrazolo[1,5-a]pyrimidine-3-carboxyamide” (Boehringer Ingelheim International GmbH, priority 2015, dated 2018).

The chains behind the UniProt entries cited, without tags or fusion partners. Where a name states a change or a piece, a line headed by the entry shows the natural chain unless it says otherwise.
UniProt Q9Y233: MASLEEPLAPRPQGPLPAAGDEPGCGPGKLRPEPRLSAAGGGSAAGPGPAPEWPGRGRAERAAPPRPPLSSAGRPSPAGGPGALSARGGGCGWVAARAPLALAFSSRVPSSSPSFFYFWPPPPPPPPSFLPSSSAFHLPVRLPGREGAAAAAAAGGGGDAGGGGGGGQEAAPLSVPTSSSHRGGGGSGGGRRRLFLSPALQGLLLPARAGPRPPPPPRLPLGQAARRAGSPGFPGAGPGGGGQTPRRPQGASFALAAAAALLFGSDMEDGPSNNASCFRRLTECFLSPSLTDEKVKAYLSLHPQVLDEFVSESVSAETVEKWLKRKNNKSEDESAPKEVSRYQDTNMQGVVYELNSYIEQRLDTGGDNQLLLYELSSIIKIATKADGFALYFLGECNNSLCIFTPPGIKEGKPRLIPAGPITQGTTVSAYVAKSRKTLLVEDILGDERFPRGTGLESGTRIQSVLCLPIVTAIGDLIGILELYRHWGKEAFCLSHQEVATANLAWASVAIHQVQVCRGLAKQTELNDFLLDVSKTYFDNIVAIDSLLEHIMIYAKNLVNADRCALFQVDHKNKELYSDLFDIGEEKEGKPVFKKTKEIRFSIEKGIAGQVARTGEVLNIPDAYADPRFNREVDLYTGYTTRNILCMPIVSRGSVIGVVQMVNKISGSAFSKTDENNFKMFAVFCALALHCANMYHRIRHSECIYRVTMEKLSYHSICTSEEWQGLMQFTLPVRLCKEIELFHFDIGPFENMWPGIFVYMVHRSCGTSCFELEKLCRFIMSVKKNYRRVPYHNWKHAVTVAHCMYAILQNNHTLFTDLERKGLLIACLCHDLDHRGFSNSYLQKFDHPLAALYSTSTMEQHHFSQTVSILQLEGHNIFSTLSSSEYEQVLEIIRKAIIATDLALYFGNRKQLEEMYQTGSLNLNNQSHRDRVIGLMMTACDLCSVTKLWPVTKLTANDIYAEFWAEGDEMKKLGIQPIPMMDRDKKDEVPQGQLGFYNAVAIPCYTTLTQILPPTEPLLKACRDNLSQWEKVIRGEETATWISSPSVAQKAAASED

Molecular target: PDE10 (Homo sapiens (Human), UniProt Q9Y233)
Test: Phosphodiesterase (PDE) 10 assay with fluorescent substrate (IMAP, fluorescence polarization)
Type: biochemical
Conditions: labeled cAMP 30 nM
Text: a) Phosphodiesterase (PDE) 2A and 10 Assay with Fluorescent Substrate
The PDE reaction cleaves cAMP to AMP. The IMAP system (Molecular Device) using fluorescence polarization (FP) as detection principle was used to measure enzyme activity. A fluorescent labeled cAMP was used as substrate for the reaction, generating a labeled AMP. The fluorescent AMP binds specifically to the large M(III)-based nano-particles which reduces the rotational speed of the substrate and thus increases its polarization.
The inhibition of PDE 2A or 10 enzyme activity was assessed using IMAP-Phosphodiesterase-cAMP fluorescence labeled substrate (Molecular Devices, Order No. R7506), IMAP TR-FRET screening express (Molecular Devices, Order No. R8160, the TR-FRET component will not be used) and PDE 2A or PDE10 protein expressed upon baculovirus infection in SF9 cells. The cells were incubated after infection for ˜3 days and protein production was confirmed by Western Blot. […]
Compounds were serial diluted in DMSO. […] After at least 90 min of further incubation (room temperature, dark) the assay was measured at 485 nm excitation/525 nm emission in an Envision multilabel reader (PerkinElmer). […]
IC50 values are calculated with Assay Explorer or other suited software based on curve fitting of results of at least 8 different compound concentrations. […]

IC50: 9.67 µM
SMILES: CC1(O)COCCC1(NC(=O)c1cnn2cc(C3CC3)cnc12)c1ccc(C(F)(F)F)cc1F (stereo not shown) [Example 54]
